The target in test [1] is T1, Ah receptor (Cavia porcellus, UniProt Q6J287).
T1 sequence (Q6J287 1-846): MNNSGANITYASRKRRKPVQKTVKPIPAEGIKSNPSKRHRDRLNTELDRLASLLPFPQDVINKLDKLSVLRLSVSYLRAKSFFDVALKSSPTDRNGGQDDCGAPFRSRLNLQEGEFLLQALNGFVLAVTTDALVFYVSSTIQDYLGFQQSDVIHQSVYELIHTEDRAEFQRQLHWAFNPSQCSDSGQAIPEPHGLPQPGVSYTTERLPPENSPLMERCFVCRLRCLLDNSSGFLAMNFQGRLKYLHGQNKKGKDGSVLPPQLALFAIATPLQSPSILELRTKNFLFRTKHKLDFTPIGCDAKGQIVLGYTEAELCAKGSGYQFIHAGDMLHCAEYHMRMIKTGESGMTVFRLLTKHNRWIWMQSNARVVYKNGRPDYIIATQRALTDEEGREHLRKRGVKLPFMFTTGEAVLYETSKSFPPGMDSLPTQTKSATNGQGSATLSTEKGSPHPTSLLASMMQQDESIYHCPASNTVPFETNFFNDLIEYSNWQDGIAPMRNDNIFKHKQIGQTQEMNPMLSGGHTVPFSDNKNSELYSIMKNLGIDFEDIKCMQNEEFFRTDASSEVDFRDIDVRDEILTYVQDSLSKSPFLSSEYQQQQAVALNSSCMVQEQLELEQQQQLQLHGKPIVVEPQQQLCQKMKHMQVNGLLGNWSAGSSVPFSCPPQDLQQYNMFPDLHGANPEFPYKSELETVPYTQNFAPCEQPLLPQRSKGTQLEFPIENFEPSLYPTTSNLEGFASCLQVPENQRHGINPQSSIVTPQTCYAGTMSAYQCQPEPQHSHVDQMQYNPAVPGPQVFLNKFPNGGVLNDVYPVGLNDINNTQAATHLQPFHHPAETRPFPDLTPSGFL
In words: Ah receptor transformation, agonist test (Ah-immunoassay, absence of TCDD). In kind it is biochemical, Guinea pig. The conditions noted are these: no TCDD added.

Test [2] addresses T1, Ah receptor. In words: Inhibition of Ah receptor transformation, antagonist test (Ah-immunoassay, 0.5 nM TCDD). The following applies: plus 0.5 nM TCDD.

Consider `O=c1cc(-c2ccccc2)oc2c1ccc1ccccc12` [α-naphthoflavone], for which the “Ah receptor transformation, ELISA reading at 405 nm” value worked out at 85 on Ah receptor [1] (Table 7, 7.81 μM); 10 on Ah receptor [1] (Table 7, 15.63 μM); 20 on Ah receptor [1] (Table 7, 31.25 μM); 31.5 at Ah receptor [1] (Table 7, 62.5 μM); 77.5 on Ah receptor [1] (Table 7, 125 μM); 149.5 at Ah receptor [1] (Table 7, 250 μM). For the same compound, the “Ah receptor transformation, ELISA reading at 405 nm” value on Ah receptor [1] (Table 7, 500 μM) is reported as 263. The “inhibition of Ah receptor transformation, ELISA reading at 405 nm” value on Ah receptor [2] (Table 7, 7.81 μM) is recorded as 735; at Ah receptor [2] (Table 7, 15.63 μM), 458; at Ah receptor [2] (Table 7, 31.25 μM) it was 338; at Ah receptor [2] (Table 7, 62.5 μM), 248; at Ah receptor [2] (Table 7, 125 μM) it was 296; at Ah receptor [2] (Table 7, 250 μM) it was 279. The “inhibition of Ah receptor transformation, ELISA reading at 405 nm” value at Ah receptor [2] (Table 7, 500 μM) came out at 308.5.

The values are drawn from US5833994A, “Use of the AH receptor and AH receptor ligands to treat or prevent cytopathicity of viral infection” (Paracelsian, Inc., priority 1997, dated 1998).
